# In publication PMC7555893, “Structural role of essential light chains in the apicomplexan glideosome” (Communications Biology, 2020):
# Target: Pre-complex of TgELC1 with TgMyoA-C (T. gondii) (UniProt O00934)
# Test: ITC; 200 uM protein (syringe) injected 19 x 2 uL into 20 uM pre-formed complex of light chain and MyoA peptide (cell, 1:1.1); 20 mM HEPES pH 7.5, 150 mM NaCl, 0.5 mM TCEP with 1 mM CaCl2; 25 °C; one-site model
substance,measurement,value
"T. gondii myosin light chain 1, short construct (MLC1-S) (domain or fragment)",stoichiometry N,0.92
